Values of other authors, collected in patent publication US5792622A, “Assay for chemicals” (priority 1995, dated 1998).

Tested on: fish (trout fingerlings)
Settings: Table 8, trout fingerlings; cited from earlier work

c1ccccc1 [Benzene]
Fish LD50 (50% death of the fish): 10-100 ppm
